Assay results as given in patent US20260306453A1, “FORMULATIONS CONTAINING TRYPTAMINE DERIVATIVES AND USES THEREOF” (priority 2023, published 2026).

Protein sequences, listed by entry. Tags and fused reporters are not part of them.
UniProt P28223, whole entry: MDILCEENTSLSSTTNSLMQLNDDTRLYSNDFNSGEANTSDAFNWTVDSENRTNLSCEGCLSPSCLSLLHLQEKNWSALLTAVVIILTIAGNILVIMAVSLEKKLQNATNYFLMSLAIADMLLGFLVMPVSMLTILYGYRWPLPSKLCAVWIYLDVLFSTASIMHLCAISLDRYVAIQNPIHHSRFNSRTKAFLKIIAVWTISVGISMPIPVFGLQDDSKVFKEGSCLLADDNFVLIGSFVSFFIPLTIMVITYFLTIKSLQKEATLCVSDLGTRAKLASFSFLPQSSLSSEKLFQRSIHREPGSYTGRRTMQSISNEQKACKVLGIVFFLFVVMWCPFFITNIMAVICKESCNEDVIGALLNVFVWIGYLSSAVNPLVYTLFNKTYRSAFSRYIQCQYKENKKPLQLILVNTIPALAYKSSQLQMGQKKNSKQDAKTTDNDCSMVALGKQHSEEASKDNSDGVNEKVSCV

Target: 5-HT2A (Homo sapiens, UniProt P28223)
Assay: In vitro functional activity, 5-HT2A
Assay type: biochemical
Conditions: agonism
From the text: The functional activity considers agonism vs. antagonism. […] Each of these receptors affects mental health, learning, memory, and more specifically, 5-HT6 is responsible for precognitive effects and neuronal connections, growth, and migration.

For CC(=O)Oc1cccc2[nH]c(Br)c(CCN(C)C)c12 [drawing 18], which EC50 is on record?
Its EC50 is 598 nM.
